Literature values, collected in patent US20060205733A1, “Endothelin a receptor antagonists in combination with phosphodiesterase 5 inhibitors and uses thereof” (Encysive Pharmaceuticals, priority 2004, published 2006).

Sequences of proteins named here, by UniProt entry; tags and fusion partners are left off. Residues count along the entry.
UniProt P24530, 27-442 limits assumed: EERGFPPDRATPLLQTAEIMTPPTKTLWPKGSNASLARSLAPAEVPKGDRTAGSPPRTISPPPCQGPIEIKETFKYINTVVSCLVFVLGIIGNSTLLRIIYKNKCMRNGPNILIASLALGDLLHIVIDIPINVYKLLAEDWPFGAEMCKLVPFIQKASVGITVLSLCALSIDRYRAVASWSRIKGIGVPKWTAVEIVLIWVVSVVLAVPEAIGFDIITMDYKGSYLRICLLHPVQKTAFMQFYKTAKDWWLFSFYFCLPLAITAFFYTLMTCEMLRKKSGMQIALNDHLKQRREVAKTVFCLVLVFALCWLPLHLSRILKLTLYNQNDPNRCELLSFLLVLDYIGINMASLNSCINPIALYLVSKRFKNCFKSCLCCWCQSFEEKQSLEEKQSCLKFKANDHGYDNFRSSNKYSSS
UniProt P25101, 21-427 limits assumed: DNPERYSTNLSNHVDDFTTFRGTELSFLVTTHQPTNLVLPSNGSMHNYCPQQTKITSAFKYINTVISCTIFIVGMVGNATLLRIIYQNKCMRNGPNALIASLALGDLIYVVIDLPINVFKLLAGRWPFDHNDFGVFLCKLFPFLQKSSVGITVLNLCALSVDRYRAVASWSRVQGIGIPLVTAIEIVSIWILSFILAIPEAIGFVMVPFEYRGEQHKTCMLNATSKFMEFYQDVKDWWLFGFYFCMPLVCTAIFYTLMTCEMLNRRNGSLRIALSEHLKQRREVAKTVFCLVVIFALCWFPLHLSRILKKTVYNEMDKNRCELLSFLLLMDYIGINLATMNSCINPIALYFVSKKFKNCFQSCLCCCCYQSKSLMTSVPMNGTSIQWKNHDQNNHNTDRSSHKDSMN

Assays:
ETB = ETB (Homo sapiens, UniProt P24530); details: read-out: Binding K1 (nM) to ETB; cited from earlier work
ETA = ETA (Homo sapiens, UniProt P25101); details: ETA versus ETB, Table 2; cited from earlier work

CC(C)C[C@@H]1NC(=O)[C@@H](c2cccs2)NC(=O)[C@H](CC(=O)O)NC(=O)[C@H](CC(=O)N2CCN(c3ccccc3)CC2)NC(=O)[C@@H](CC(=O)O)NC(=O)[C@@H](Cc2c[nH]c3ccccc23)NC1=O
Ki (ETB): 690 nM
Selectivity (ETA): 454
